Experimental data: ChEMBL document CHEMBL3797021, “Design, synthesis, and biological evaluation of substrate-competitive inhibitors of C-terminal Binding Protein (CtBP)” (Bioorg Med Chem, 2016)

How the values were obtained:
[1] = biological target: C-terminal-binding protein 2 (Homo sapiens, UniProt P56545); test: Inhibition of CtBP2 (unknown origin) transfected in human HCT116 p53-/- cells assessed as increase in Bik transcription at 1 mM by dual luciferase reporter gene assay relative to control; format: cell-based; conditions: HCT-116
[2] = Selectivity ratio of IC50 for rabbit muscle L-lactate dehydrogenase to IC50 for recombinant His6-tagged CtBP2 (31 to 384 residues) (unknown origin) dehydrogenase activity

fold change (FC) [1]: 1.41
Ratio IC50 [2]: > 170
Structure (SMILES): O=C(O)/C(Cc1cccc(Cl)c1)=N\O
